Reference: PubChem BioAssay AID2014 (Sanford-Burnham Center for Chemical Genomics, 2009)
Only a part is listed here, and it is no random draw. Some of these compounds have results that are not shown, active ones among them. Calls of active or inactive are those of the source. The rule behind the calls is not given here.

Sequences of proteins named here, by UniProt entry; tags and fusion partners are left off.
UniProt P11940, whole entry: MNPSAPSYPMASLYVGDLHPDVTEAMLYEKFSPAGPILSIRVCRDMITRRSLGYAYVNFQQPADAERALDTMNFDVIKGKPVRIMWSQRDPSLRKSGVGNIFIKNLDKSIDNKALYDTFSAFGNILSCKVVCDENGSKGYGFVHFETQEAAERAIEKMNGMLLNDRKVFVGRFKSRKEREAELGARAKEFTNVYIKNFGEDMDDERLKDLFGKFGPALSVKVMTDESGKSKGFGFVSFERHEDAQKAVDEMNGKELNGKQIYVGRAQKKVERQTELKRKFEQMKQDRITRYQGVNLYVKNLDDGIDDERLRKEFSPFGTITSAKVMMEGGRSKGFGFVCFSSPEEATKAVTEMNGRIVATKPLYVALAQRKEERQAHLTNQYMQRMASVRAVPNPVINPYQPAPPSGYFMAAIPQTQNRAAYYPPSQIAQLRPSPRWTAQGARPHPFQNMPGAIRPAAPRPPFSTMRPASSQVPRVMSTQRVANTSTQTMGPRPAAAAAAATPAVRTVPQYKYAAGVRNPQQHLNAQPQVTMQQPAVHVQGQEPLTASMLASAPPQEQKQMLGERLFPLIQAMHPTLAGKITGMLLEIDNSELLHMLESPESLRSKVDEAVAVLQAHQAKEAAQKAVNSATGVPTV

target: Polyadenylate-binding protein 1 (Homo sapiens) (UniProt P11940); test: blockers of PABP interaction with poly(A) – biochemical, fluorescence polarization, uHTS, primary screen (AID 2014); settings: PABP-poly(A) RNA binding, at 35 µM, stronger effect = higher value

| Structure (SMILES) | inhibition |
| --- | --- |
| C=CCN1CCN(CCOC(=O)C(O)(c2ccccc2)c2ccccc2)CC1 | inactive: 14% |
| O=C(NCC1(N2CCCCC2)CCCCC1)c1cc(F)c(F)cc1Cl | inactive: 5.8% |
| COc1ccc(C(=O)NCC2(N(C)C)CCCCC2)cc1 | inactive: 4.2% |
| Cc1cc(C(=O)NCC2(N3CCCCC3)CCCCC2)ccc1[N+](=O)[O-] | inactive: -2.9% |
| CCN1CCCC(OC(=O)C2(O)c3ccccc3C=Cc3ccccc32)C1 (centres undefined) | inactive: 27.2% |
| O=C(NCC1(N2CCCCC2)CCCCC1)c1cccc(Br)c1 | inactive: -0.4% |
| Cc1ccccc1C(=O)NCC1(N2CCCCC2)CCCCC1 | inactive: -8.9% |
| CN(C)C1CCCC1OC(=O)C(O)(c1ccccc1)c1ccccc1 (centres undefined) | inactive: -14.8% |
| CN(C)c1ccc(C(=O)NCC2(N(C)C)CCCCC2)cc1 | inactive: -21.4% |
| CCN(CC)CC(C)C(C)OC(=O)C(O)(c1ccccc1)c1ccccc1 (centres undefined) | inactive: -1.4% |
| COc1cc(SC)ccc1C(=O)NCC1(N(C)C)CCCCC1 | inactive: 0.4% |
| CC(C)N1C(=O)CC2(CCN(CCOC(=O)C(O)(c3ccccc3)c3ccccc3)CC2)C1=O | inactive: -0.5% |
| Cc1ccc(C(=O)NCC2(N3CCCCC3)CCCCC2)cc1 | inactive: 3.5% |
| O=C(NCC1(N2CCCCC2)CCCCC1)c1cc([N+](=O)[O-])ccc1Cl | inactive: -9.3% |
| CN1[C@@H]2CC[C@H]1CC(OC(=O)C(O)(c1ccccc1)c1ccccc1)C2 (some centres undefined) | inactive: 2.5% |
| COc1ccc(Br)c(C(=O)NCC2(N3CCCCC3)CCCCC2)c1 | inactive: -3.9% |
| CC(C)Oc1ccc(C(=O)NCC2(N(C)C)CCCCC2)cc1 | inactive: 3.8% |
| CN(C)c1cccc(C(=O)NCC2(N(C)C)CCCCC2)c1 | inactive: 7.5% |
| O=C(OC1CN2CCC1CC2)C(CO)(c1ccccc1)c1ccccc1 (centres undefined) | inactive: 1.5% |
| COc1cccc(C(=O)NCC2(N3CCCCC3)CCCCC2)c1 | inactive: -8.8% |
| COc1ccc(Cl)cc1C(=O)NCC1(N(C)C)CCCCC1 | inactive: 0.8% |
| O=C(NCC1(N2CCCCC2)CCCCC1)c1cccc(Cl)c1 | inactive: 9.2% |
| CN(C)C1(CNC(=O)c2ccc(Br)cc2)CCCCC1 | inactive: 2.8% |
| COc1cc(C(=O)NCC2(N(C)C)CCCCC2)c([N+](=O)[O-])cc1OC | inactive: 8.5% |
